Columns and labels:
Assay type in all cases: biochemical
F295L/F297V HuAChE = F295L/F297V HuAChE (Homo sapiens, UniProt P22303, F326L/F328V); assay: HuAChE inhibition kinetics; settings: read-out: Kd, noncovalent inhibition (competition with ATC)
Wild Type HuAChE = Wild Type HuAChE (Homo sapiens, UniProt P22303); assay: HuAChE inhibition kinetics; settings: read-out: Kd, noncovalent inhibition (competition with ATC)
E202A HuAChE = E202A HuAChE (Homo sapiens, UniProt P22303, E233A); assay: HuAChE inhibition kinetics; settings: read-out: Kd, noncovalent inhibition (competition with ATC)
Y133F HuAChE = Y133F HuAChE (Homo sapiens, UniProt P22303, Y164F); assay: HuAChE inhibition kinetics; settings: read-out: Kd, noncovalent inhibition (competition with ATC)
F295A/F297A HuAChE = F295A/F297A HuAChE (Homo sapiens, UniProt P22303, F326A/F328A); assay: HuAChE inhibition kinetics; settings: read-out: Kd, noncovalent inhibition (competition with ATC)
W86F HuAChE = W86F HuAChE (Homo sapiens, UniProt P22303, W117F); assay: HuAChE inhibition kinetics; settings: read-out: Kd, noncovalent inhibition (competition with ATC)
Y341A HuAChE = Y341A HuAChE (Homo sapiens, UniProt P22303, Y372A); assay: HuAChE inhibition kinetics; settings: read-out: Kd, noncovalent inhibition (competition with ATC)
F295L/F297V/Y337A HuAChE = F295L/F297V/Y337A HuAChE (Homo sapiens, UniProt P22303, F326L/F328V/Y368A); assay: HuAChE inhibition kinetics; settings: read-out: Kd, noncovalent inhibition (competition with ATC)
Y337F HuAChE = Y337F HuAChE (Homo sapiens, UniProt P22303, Y368F); assay: HuAChE inhibition kinetics; settings: read-out: Kd, noncovalent inhibition (competition with ATC)
Y72N HuAChE = Y72N HuAChE (Homo sapiens, UniProt P22303, Y103N); assay: HuAChE inhibition kinetics; settings: read-out: Kd, noncovalent inhibition (competition with ATC)
F338A HuAChE = F338A HuAChE (Homo sapiens, UniProt P22303, F369A); assay: HuAChE inhibition kinetics; settings: read-out: Kd, noncovalent inhibition (competition with ATC)
[1] = target: Y72N/Y124Q/W286A/ F295L/F297V/Y337A HuAChE (Homo sapiens, UniProt P22303, F326L/F328V/W317A/Y103N/Y155Q/Y368A); assay: HuAChE inhibition kinetics; settings: read-out: Kd, noncovalent inhibition (competition with ATC), no carbamylation
F295A HuAChE = F295A HuAChE (Homo sapiens, UniProt P22303, F326A); assay: HuAChE inhibition kinetics; settings: read-out: Kd, noncovalent inhibition (competition with ATC)
Y133A HuAChE = Y133A HuAChE (Homo sapiens, UniProt P22303, Y164A); assay: HuAChE inhibition kinetics; settings: read-out: Kd, noncovalent inhibition (competition with ATC)
W86A/Y337A HuAChE = W86A/Y337A HuAChE (Homo sapiens, UniProt P22303, W117A/Y368A); settings: read-out: Kd, noncovalent inhibition (competition with ATC)
W86A HuAChE = W86A HuAChE (Homo sapiens, UniProt P22303, W117A); assay: HuAChE inhibition kinetics; settings: read-out: Kd, noncovalent inhibition (competition with ATC)
F297A HuAChE = F297A HuAChE (Homo sapiens, UniProt P22303, F328A); assay: HuAChE inhibition kinetics; settings: read-out: Kd, noncovalent inhibition (competition with ATC)
[2] = target: Y72N/Y124Q/W286A/ F295L/F297V/Y337A/ V407F HuAChE (Homo sapiens, UniProt P22303, F326L/F328V/V438F/W317A/Y103N/Y155Q/Y368A); assay: HuAChE inhibition kinetics; settings: read-out: Kd, noncovalent inhibition (competition with ATC), no carbamylation
Y337A HuAChE = Y337A HuAChE (Homo sapiens, UniProt P22303, Y368A); assay: HuAChE inhibition kinetics; settings: read-out: Kd, noncovalent inhibition (competition with ATC)
D74N HuAChE = D74N HuAChE (Homo sapiens, UniProt P22303, D105N); assay: HuAChE inhibition kinetics; settings: read-out: Kd, noncovalent inhibition (competition with ATC)
F295A/F338A/V407F HuAChE = F295A/F338A/V407F HuAChE (Homo sapiens, UniProt P22303, F326A/F369A/V438F); assay: HuAChE inhibition kinetics; settings: read-out: Kd, noncovalent inhibition (competition with ATC)
F295A/F338A HuAChE = F295A/F338A HuAChE (Homo sapiens, UniProt P22303, F326A/F369A); assay: HuAChE inhibition kinetics; settings: read-out: Kd, noncovalent inhibition (competition with ATC), no carbamylation

By UniProt entry, the sequences of proteins in these tests, tags left out. Residues count along the entry.
UniProt P22303, 32-614 F326L/F328V: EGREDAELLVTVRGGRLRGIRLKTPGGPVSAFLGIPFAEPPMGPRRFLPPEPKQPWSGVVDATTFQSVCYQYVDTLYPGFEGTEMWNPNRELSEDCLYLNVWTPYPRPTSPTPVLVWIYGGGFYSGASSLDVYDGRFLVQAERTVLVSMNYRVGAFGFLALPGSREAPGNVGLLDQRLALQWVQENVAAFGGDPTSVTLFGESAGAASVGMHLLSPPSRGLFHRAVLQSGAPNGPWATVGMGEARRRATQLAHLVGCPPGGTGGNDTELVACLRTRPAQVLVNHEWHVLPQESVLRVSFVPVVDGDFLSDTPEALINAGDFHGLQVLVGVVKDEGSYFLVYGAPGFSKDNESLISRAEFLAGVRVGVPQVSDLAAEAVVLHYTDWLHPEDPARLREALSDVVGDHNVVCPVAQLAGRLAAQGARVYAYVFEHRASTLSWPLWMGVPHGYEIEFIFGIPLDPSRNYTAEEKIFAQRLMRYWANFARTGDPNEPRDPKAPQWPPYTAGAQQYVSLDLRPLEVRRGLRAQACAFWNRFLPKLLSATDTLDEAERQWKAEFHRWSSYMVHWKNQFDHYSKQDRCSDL
UniProt P22303, 32-614: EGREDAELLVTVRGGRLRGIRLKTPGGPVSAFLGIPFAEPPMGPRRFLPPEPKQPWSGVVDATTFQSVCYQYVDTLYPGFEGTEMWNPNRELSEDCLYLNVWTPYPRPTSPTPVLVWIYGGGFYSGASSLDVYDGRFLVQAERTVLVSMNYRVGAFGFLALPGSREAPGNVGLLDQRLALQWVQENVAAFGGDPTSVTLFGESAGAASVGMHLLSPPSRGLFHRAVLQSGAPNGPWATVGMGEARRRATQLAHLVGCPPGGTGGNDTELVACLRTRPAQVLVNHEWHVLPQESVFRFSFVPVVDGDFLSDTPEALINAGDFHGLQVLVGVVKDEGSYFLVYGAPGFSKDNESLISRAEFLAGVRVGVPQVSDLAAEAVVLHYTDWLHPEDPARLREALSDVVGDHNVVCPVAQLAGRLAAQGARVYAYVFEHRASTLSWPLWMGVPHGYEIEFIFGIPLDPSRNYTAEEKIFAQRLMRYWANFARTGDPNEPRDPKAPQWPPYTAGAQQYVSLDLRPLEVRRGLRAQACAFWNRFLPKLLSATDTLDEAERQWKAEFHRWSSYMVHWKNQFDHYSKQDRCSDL
UniProt P22303, 32-614 E233A: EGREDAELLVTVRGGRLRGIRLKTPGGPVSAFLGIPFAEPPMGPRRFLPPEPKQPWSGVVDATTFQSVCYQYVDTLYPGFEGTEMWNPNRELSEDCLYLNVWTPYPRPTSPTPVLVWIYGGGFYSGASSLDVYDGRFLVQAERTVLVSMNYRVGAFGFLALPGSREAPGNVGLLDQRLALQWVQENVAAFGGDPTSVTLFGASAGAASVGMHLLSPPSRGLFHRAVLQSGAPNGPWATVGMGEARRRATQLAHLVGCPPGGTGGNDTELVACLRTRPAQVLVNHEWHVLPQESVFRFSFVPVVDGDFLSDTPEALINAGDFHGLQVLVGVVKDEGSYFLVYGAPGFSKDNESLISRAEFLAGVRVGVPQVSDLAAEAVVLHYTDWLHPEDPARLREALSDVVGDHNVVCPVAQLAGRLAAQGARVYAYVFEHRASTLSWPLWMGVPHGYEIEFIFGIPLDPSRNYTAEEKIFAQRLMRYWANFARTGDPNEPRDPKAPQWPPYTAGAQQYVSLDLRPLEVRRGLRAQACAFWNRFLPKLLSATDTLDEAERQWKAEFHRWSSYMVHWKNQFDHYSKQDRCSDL
UniProt P22303, 32-614 Y164F: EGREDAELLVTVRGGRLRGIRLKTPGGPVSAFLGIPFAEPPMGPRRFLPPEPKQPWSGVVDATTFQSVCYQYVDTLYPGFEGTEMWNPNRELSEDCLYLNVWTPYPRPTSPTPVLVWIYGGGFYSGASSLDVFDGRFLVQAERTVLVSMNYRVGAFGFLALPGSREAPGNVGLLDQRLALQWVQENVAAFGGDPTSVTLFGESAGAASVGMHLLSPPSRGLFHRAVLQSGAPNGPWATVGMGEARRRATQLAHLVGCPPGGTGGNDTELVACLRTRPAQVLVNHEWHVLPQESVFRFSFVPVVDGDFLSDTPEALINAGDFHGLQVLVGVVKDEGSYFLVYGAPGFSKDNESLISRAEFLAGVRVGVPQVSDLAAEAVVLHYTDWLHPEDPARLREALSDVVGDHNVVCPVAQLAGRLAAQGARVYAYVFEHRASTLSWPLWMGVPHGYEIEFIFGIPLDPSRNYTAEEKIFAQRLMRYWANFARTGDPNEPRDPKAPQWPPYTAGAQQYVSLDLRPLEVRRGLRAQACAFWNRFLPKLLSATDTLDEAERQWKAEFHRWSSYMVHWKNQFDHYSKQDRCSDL
UniProt P22303, 32-614 F326A/F328A: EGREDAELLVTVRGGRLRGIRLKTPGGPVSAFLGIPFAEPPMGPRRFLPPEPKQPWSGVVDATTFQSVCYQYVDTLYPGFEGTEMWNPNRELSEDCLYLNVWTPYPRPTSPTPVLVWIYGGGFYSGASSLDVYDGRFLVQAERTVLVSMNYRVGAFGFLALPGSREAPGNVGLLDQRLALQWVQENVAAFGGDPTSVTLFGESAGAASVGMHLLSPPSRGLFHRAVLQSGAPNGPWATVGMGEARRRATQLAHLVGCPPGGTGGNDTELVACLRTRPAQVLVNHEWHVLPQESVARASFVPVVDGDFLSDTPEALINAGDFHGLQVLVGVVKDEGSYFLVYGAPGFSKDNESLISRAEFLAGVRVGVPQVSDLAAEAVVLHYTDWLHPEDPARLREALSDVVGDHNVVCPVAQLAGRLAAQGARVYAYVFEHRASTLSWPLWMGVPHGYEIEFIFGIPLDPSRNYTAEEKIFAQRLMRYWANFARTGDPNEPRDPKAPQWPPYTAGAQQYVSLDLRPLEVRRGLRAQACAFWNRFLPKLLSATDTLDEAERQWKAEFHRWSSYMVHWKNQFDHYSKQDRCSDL
UniProt P22303, 32-614 W117F: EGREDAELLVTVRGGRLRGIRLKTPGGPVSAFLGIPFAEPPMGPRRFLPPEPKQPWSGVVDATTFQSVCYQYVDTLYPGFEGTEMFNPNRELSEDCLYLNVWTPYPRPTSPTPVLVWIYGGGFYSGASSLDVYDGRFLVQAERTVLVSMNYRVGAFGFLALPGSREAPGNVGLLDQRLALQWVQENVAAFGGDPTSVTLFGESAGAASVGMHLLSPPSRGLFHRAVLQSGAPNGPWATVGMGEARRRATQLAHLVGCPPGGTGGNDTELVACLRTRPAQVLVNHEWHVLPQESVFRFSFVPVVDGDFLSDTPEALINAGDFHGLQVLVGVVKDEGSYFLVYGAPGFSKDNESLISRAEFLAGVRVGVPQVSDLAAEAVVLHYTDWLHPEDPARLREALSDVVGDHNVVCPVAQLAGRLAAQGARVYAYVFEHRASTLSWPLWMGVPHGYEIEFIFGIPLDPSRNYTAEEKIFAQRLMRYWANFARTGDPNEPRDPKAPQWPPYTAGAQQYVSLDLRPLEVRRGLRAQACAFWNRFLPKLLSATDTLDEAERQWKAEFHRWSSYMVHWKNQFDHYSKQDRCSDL
UniProt P22303, 32-614 Y372A: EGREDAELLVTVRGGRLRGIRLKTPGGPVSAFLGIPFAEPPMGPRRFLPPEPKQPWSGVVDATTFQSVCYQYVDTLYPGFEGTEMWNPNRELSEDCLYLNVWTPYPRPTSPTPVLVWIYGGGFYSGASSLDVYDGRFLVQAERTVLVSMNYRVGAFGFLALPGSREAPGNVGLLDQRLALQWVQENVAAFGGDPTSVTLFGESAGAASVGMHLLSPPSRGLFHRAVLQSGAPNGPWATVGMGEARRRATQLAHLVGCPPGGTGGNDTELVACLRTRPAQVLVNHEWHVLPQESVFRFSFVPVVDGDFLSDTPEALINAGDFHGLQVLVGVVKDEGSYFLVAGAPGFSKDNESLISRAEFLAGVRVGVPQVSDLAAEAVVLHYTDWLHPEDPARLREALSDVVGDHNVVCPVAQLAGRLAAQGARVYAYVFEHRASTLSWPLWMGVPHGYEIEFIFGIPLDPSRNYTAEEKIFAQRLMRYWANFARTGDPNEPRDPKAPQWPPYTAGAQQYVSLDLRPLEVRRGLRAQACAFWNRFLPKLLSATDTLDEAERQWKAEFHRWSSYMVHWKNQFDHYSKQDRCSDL
UniProt P22303, 32-614 F326L/F328V/Y368A: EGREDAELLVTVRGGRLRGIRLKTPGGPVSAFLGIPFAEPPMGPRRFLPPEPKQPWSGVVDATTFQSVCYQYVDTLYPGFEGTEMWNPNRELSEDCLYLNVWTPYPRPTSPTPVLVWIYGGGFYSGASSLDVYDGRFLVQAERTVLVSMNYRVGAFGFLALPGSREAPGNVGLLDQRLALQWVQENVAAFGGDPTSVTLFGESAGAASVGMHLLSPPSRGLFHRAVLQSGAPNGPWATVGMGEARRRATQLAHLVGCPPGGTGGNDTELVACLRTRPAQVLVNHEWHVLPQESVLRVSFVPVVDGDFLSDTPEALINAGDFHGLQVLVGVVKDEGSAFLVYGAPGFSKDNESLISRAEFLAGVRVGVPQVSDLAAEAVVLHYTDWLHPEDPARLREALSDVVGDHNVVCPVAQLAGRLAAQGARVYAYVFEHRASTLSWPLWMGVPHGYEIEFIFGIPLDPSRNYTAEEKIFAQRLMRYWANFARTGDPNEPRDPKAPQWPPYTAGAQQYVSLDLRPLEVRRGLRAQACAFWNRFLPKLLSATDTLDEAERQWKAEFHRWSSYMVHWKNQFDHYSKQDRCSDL
UniProt P22303, 32-614 Y368F: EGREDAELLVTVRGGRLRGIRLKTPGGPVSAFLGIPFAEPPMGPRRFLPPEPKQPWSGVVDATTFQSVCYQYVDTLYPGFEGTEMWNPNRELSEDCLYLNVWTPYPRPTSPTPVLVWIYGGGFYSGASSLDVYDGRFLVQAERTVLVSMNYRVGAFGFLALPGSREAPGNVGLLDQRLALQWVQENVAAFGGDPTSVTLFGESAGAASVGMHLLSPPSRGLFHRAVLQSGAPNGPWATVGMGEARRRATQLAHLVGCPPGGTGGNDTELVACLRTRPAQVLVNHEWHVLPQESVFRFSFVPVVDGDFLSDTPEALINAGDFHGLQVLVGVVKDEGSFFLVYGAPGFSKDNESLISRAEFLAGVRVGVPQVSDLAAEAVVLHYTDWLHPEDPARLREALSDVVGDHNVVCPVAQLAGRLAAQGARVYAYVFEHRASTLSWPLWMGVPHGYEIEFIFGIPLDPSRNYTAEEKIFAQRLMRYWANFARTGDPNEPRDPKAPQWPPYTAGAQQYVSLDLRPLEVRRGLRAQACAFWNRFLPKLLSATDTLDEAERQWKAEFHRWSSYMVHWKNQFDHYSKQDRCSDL
UniProt P22303, 32-614 Y103N: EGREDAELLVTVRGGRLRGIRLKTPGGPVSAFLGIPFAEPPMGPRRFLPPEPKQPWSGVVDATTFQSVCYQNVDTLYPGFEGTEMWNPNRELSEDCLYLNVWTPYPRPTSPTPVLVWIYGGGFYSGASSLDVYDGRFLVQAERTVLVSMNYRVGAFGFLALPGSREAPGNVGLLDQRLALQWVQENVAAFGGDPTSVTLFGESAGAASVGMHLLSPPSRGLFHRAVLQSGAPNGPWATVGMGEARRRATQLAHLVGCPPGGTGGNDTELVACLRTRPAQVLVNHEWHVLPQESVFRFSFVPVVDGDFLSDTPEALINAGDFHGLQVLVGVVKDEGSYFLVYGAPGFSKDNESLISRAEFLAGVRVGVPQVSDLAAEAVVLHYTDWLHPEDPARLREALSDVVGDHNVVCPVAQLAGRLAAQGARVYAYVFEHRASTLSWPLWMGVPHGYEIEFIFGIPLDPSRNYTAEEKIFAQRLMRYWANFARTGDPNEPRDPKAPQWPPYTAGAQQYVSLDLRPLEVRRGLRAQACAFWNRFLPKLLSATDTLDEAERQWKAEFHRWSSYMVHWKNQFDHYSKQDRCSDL
UniProt P22303, 32-614 F369A: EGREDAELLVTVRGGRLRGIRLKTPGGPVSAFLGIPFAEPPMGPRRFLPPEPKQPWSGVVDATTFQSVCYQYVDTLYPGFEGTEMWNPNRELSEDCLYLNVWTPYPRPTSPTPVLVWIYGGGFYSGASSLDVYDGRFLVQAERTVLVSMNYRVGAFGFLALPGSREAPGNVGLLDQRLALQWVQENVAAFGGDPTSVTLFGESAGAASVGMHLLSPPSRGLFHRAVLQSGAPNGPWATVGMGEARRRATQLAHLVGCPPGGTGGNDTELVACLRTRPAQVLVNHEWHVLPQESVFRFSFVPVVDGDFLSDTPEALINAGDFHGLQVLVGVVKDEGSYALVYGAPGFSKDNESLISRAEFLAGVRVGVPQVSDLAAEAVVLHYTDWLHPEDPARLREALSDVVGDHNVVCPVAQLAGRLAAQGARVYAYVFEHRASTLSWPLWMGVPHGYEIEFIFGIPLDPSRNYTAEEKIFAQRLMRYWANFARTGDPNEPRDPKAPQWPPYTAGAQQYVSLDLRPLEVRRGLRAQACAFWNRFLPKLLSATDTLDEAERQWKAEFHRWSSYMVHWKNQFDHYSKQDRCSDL

## CC(C)c1ccc(NC(=O)Oc2ccc3c(c2)[C@]2(C)CCN(C)[C@@H]2N3C)cc1 [(−)Cymserine, cymserine]
F295L/F297V HuAChE
  Kd: 100 ± 5 nM
Wild Type HuAChE
  Kd: 630 ± 70 nM
E202A HuAChE
  Kd: 12000 ± 5000 nM
Y133F HuAChE
  Kd: 3700 ± 1300 nM
F295A/F297A HuAChE
  Kd: 160 ± 30 nM
W86F HuAChE
  Kd: 150 ± 50 nM
Y341A HuAChE
  Kd: 190 ± 50 nM
F295L/F297V/Y337A HuAChE
  Kd: 270 ± 80 nM
Y337F HuAChE
  Kd: 300 ± 30 nM
Y72N HuAChE
  Kd: 290 ± 110 nM
F338A HuAChE
  Kd: 4000 ± 1800 nM
[1]
  Kd: 230 ± 50 nM
F295A HuAChE
  Kd: 40 ± 10 nM
Y133A HuAChE
  Kd: 22000 ± 10000 nM
W86A/Y337A HuAChE
  Kd: 47000 ± 12700 nM
W86A HuAChE
  Kd: 5400 ± 1200 nM
F297A HuAChE
  Kd: 750 ± 140 nM
[2]
  Kd: 2000 ± 400 nM
Y337A HuAChE
  Kd: 380 ± 90 nM
D74N HuAChE
  Kd: 870 ± 350 nM
F295A/F338A/V407F HuAChE
  Kd: 2200 ± 500 nM
F295A/F338A HuAChE
  Kd: 130 ± 30 nM

## CC(C)c1ccc(NC(=O)Oc2ccc3c(c2)[C@]2(C)CCN(C)[C@@H]2N3C)cc1 [(+)-Cymserine, cymserine]
Wild Type HuAChE
  Kd: 30000 ± 7600 nM
F338A HuAChE
  Kd: 13500 ± 1400 nM
Y133A HuAChE
  Kd: 480000 ± 190000 nM
W86A HuAChE
  Kd: 13000 ± 5800 nM
Y337A HuAChE
  Kd: 5000 ± 1300 nM

— publication PMC2949283 (The Biochemical journal, 2009)
